Literature values, collected in publication PMC8538783, “Green Oxidation of Amines by a Novel Cold-Adapted Monoamine Oxidase MAO P3 from Psychrophilic Fungi Pseudogymnoascus sp. P3” (Molecules, 2021).

System: MAO B
Conditions: cited from earlier work

For deprenyl, the “low concentration that inhibits MAO B” value is listed as 10^−7 M.
